Amino acid sequences for entries named in this document (tags omitted). Residues count along the entry.
UniProt Q3UP87, 27-265: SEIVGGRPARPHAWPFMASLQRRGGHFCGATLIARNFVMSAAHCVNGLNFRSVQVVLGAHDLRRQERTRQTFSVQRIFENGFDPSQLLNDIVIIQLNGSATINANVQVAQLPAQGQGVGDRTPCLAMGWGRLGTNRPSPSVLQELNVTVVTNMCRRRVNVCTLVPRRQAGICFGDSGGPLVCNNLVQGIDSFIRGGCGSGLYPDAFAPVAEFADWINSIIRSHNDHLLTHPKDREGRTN

According to US20210113563A1, “4-(4-CYANO-2-THIOARYL)DIHYDROPYRIMIDINONES FOR TREATING CHRONIC WOUNDS” (pH Pharma Co., Ltd., priority 2015, published 2021):

How the values were obtained:
Neutrophil Elastase (NE) = Neutrophil Elastase (NE) (Mus musculus, UniProt Q3UP87); settings: db/db mouse, day 8
[1] = biological target: T1, human neutrophil elastase (HNE) (Homo sapiens, UniProt P08246); settings: read-out: Inhibition of human neutrophil elastase (HNE) IC50; cited from earlier work
T1 sequence (P08246 30-267): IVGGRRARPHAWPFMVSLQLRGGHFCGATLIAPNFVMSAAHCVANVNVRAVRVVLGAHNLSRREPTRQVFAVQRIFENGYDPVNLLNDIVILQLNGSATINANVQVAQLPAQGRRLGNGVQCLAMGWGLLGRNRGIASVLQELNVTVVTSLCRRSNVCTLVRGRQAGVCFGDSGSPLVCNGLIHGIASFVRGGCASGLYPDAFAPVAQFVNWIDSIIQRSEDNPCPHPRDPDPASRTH

Compound: CC1=C(C#N)[C@@H](c2ccc(C#N)cc2S(C)(=O)=O)N(C)C(=O)N1c1cccc(C(F)(F)F)c1 [Example 5, (4 S)-4-[4-Cyano-2-(methylsulfonyl)phenyl]-3,6-dimethyl-2-oxo-1-[3-(trifluoromethyl)phenyl]-1,2,3,4-tetrahydropyrimidine-5-carbonitrile]
- NE activity in wound tissue (Neutrophil Elastase (NE); 0.3 mg/kg BW o.d. p.o.): 6677 ng/mL equivalent
- NE activity in wound tissue (Neutrophil Elastase (NE); 1.0 mg/kg BW o.d. p.o.): 5018 ng/mL equivalent
- IC50 [1]: < 0.3 nM

Where two headings read alike, the source gives them in different places.
